Laboratory results published in PubChem BioAssay AID1508591.
Some results for these compounds are left out of this collection, so the calls shown say nothing about other tests.

Conditions: rat; liver microsomes; pH 7.4; 15.0 min; 1.0 µM

O=C(C1CCC1)N1CCN(C/C=C/c2ccccc2)CC1
half-life: 14 min
